Data: ChEMBL document CHEMBL2203264, “Optimization of imidazo[4,5-b]pyridine-based kinase inhibitors: identification of a dual FLT3/Aurora kinase inhibitor as an orally bioavailable preclinical development candidate for the treatment of acute myeloid leukemia” (J Med Chem, 2012)

Test system: MOLM-13
Assay: Growth inhibition of human MOLM13 cells
Format: functional

Molecule `Cc1nn(C)cc1-c1nc2c(N3CCN(Cc4ccc(Cl)cc4)CC3)c(Cl)cnc2[nH]1` [MOBINITINIB] has a GI50 of 104 nM.
